Test results from patent US12137687B2, “Method for inducing acquired resistance in a plant” (HEINRICH HEINE UNIVERSITAET DUESSELDORF, priority 2017, dated 2024).

Test system: Pseudomonas syringae pv maculicola ES4326 (Psm lux)
Format: in vivo
Settings: fmo1 mutant; 10 μmol via soil 1 d before Psm lux

Compound: O=C(O)[C@@H]1CCCCN1 [Pip, (S)-piperidine-2-carboxylic acid]
- disease resistance of fmo1 plants after pre-treatment: remained susceptible
